target: human recombinant PDE5 (Homo sapiens, UniProt O76074); experiment: Inhibitory effect on cGMP-PDE (one-step assay, 8-[H3]-cGMP); conditions: read-out: PDE5 IC50, in vitro
Experimental: The compounds of structural formula (I) were tested for an ability to inhibit PDE5. The ability of a compound to inhibit PDE5 activity is related to the IC50 value for the compound, i.e., the concentration of inhibitor required for 50% inhibition of enzyme activity. The IC50 value for compounds of structural formula (I) were determined using recombinant human PDE5.
cGMP-PDE activity of compounds of the present invention was measured using a one-step assay adapted from Wells et al., Biochim. Biophys. Acta, 384, 430 (1975). The reaction medium contained 50 mM Tris-HCl, pH 7.5, 5 mM magnesium acetate, 250 μg/ml 5′-Nucleotidase, 1 mM EGTA, and 0.15 μM 8-[H^3]-cGMP. Unless otherwise indicated, the enzyme used was a human recombinant PDE5 (ICOS Corp., Bothell, Wash.).
Compounds of the invention were dissolved in DMSO finally present at 2% in the assay.

| IC50 [nM] | Structure (SMILES) |
| --- | --- |
| 460 | CCOC(=O)c1cc2n(c1CC)C(c1ccc3c(c1)OCO3)c1[nH]c3ccccc3c1C2 (stereo not shown) |
| 60 | CCOC(=O)c1cc2n(c1)C(c1ccc(OC)cc1)c1[nH]c3ccccc3c1C2 (stereo not shown) |
| 160 | CCOC(=O)c1cc(CC)n2c1Cc1c([nH]c3ccccc13)C2c1c(C)cc(OC)cc1C (stereo not shown) |
| 20 | CCOC(=O)c1cc(C)n2c1Cc1c([nH]c3ccccc13)C2c1ccc2c(c1)OCO2 (stereo not shown) |
| 10 | COc1ccc(C2c3[nH]c4ccccc4c3Cc3c(C(=O)O)ccn32)cc1 (stereo not shown) |
| 150 | CCOC(=O)c1cc(CN(C)C)n2c1Cc1c([nH]c3ccccc13)C2c1ccc2c(c1)OCO2 (stereo not shown) |
| 10 | O=C(O)c1ccn2c1Cc1c([nH]c3ccccc13)C2c1ccc2occc2c1 (stereo not shown) |
| 10 | CCOC(=O)c1cc(CC)n2c1Cc1c([nH]c3ccccc13)C2c1ccc2c(c1)OCO2 (racemic) |
| 590 | CCOC(=O)c1cc2n(c1)C(c1ccccc1)c1[nH]c3ccccc3c1C2 (stereo not shown) |
| 7.1 | CCOC(=O)c1ccn2c1Cc1c([nH]c3ccccc13)C2c1ccc2occc2c1 (stereo not shown) |
| 4 | O=C(O)c1ccn2c1Cc1c([nH]c3ccccc13)C2c1ccc2c(c1)CCO2 (stereo not shown) |
| 10 | CCOC(=O)c1ccn2c1Cc1c([nH]c3ccccc13)C2c1ccc(C)cc1 (stereo not shown) |
| 40 | CCOC(=O)c1cc2n(c1)C(c1ccc3c(c1)OCO3)c1[nH]c3ccccc3c1C2 (stereo not shown) |
| 40 | CN1CCN(NC(=O)c2ccn3c2Cc2c([nH]c4ccccc24)C3c2ccc3c(c2)OCO3)CC1 (stereo not shown) |
| 80 | CCOC(=O)c1ccn2c1Cc1c([nH]c3ccccc13)C2c1ccccc1 (stereo not shown) |
| 6.2 | CCOC(=O)c1cc(C=O)n2c1Cc1c([nH]c3ccccc13)C2c1ccc2occc2c1 (stereo not shown) |
| 30 | CCOC(=O)c1ccn2c1Cc1c([nH]c3ccccc13)C2c1ccc(Cl)cc1 (stereo not shown) |
| 200 | COc1ccc(CNC(=O)c2ccn3c2Cc2c([nH]c4ccccc24)C3c2ccccc2)cc1OC (stereo not shown) |
| 280 | CCc1c(C(=O)NCc2ccccn2)cc2n1C(c1ccc3c(c1)OCO3)c1[nH]c3ccccc3c1C2 (stereo not shown) |
| 30 | COc1ccc(C2c3[nH]c4ccccc4c3Cc3c(C(=O)NCCN4CCOCC4)ccn32)cc1 (stereo not shown) |
| 110 | COc1ccc(C2c3[nH]c4ccccc4c3Cc3c(C(=O)NCc4ccc(OC)c(OC)c4)ccn32)cc1 (stereo not shown) |
| 2.1 | CCOC(=O)c1ccn2c1Cc1c([nH]c3ccccc13)C2c1ccc(OC)cc1 (stereo not shown) |

From patent publication US6838456B2, “Condensed pyridoindole derivatives” (Lilly ICOS LLC, priority 2000, dated 2005)
